Patent publication US20220049015A1, “COMPOSITIONS AND METHODS FOR THE TREATMENT AND/OR PREVENTION OF HER2+ CANCERS” (DUKE UNIVERSITY, priority 2018, published 2022)

Legend:
[1] = tested on: KPL4 and SKBR3 cells; experiment: MTT assay of HER2+ breast cancer cell growth in vitro; assay type: cell-based, human; conditions: 3 days post treatment, FIG. 9E
Protocol: FIG. 9. […] EC50 for each binding assay were calculated using non-linear regression curve fit, Assymetric Sigmoidal model in Graphpad Prism software. […] ELISA assays using Trastuzumab as antigen were performed to determine anti-Trastuzumab responses in mouse serum. (C-D) HER2 signaling assays were performed using 293T cells stably transduced with dox-inducible HER2Δ16. Cells were treated with dox and transfected with luciferase reporter constructs for (C) MAPK/ERK or (D) AP-1/c-JUN pathways activation. […] The HER2-Tyrosine kinase inhibitor Lapatinib were used as positive assay control at the highest possible dose (500 nM) without inducing cell toxicity.

[2] = tested on: tumor-associated macrophages (TAM); experiment: Flow cytometry analysis of tumor infiltrating immune cells; assay type: in vivo, mouse
Protocol: When tumor growth reached humane end point size (>1000 mm^3), whole tumors from mice were harvested and cut into <1 mm small pieces, and incubated for 1 hour in digestion buffer (DMEM+100 μg/mL collagenase+0.2 U/mL DNAse+1 μg/mL hyalurodinase). Single cell suspensions were spin down through a 70 μm filter and washed with medium. Approximately 5 million cells were used for staining and flow cytometry analysis. The following panel of immune cell markers (Biolegend) were used: CD45 BV650, CD11b PE-Cy7, LY6G APC, LY6C BV410, F4/80 PerCP-CY5.5, CD8B APC-CY7, CD4 PE-TR, CD49b FITC and viability dye (Aqua or Red). Tumor-associated macrophages (TAM) were identified by F4/80+ LY6G− LY6C− CD11b+ CD45+ gating. LY6G+ neutrophils were identified by LY6G+ CD11b+ CD45+ gating, whereas LY6C+ monocytes were gated on LY6C+ CD11b+ CD45+ cells.

[3] = tested on: CEM.NKR expressing HER2 and luciferase; experiment: In vitro NK cell mediated ADCC assay; assay type: cell-based; conditions: co-culture, NK.92 expressing mouse FCGR3 as effector cells
Protocol: FIG. 10. […] (B-C) Anti-tumor specific T cell responses as measured by IFNγ ELISPOT against human HER2 peptides using mouse splenocytes from (B) MM3MG-HER2Δ16 orthotopic model or (C) HER2 transgenic model (described in FIG. 5A). (D) In vitro NK cell mediated ADCC assay were performed using NK.92 expressing mouse FCGR3 as effector cells and CEM.NKR expressing HER2 and luciferase as target cells. […] Mean±SEM, biological replicates n=4, two-sided t-test, ***P<0.001. (E) In vitro Complement-dependent-cytotoxicity (CDC) assay were performed using 25% human serum treatment (4 hours) on MM3MG-HER2Δ16 lines expressing luciferase.

[4] = molecular target: T1, mouse FCGR1 (Mus musculus, UniProt P26151); experiment: FCGR signaling activation assay (Jurkat NFAT-luciferase), FCGR1; assay type: cell-based; conditions: NFAT-luciferase reporter, FIG. 2F
T1 construct: expressed in transfected cells; host or cells: Jurkat-NFAT-LUC (Invivogen jktl-nfat), lentiviral transduction, puromycin selection
T1 sequence (P26151 25-404): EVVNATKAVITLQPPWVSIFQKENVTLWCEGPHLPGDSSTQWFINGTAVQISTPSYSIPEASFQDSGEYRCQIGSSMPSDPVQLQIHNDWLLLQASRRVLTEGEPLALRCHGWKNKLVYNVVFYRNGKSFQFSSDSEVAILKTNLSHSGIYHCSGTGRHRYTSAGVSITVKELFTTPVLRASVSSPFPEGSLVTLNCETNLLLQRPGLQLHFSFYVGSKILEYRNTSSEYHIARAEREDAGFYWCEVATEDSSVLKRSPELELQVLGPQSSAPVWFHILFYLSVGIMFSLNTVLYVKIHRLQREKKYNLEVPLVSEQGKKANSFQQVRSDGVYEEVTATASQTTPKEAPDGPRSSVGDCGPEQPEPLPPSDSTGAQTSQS
Protocol: (§1) FIG. 2. […] (F-H) Mouse FCGR signaling activation assay.
(§2) Jurkat cells expressing mouse Fcgr1, Fcgr2b, Fcgr3 or Fcgr4 with NFAT-Luciferase reporter were generated with lentiviral transduction and selected with puromycin (validated in FIG. 12D-F). […] Jurkat-FCGR-NFAT-LUC effector cells were added and co-cultured for 4 hours. FCGR signaling activation were assessed by luciferase activity quantification.

[5] = molecular target: T2, mouse FCGR4 (Mus musculus, UniProt A0A0B4J1G0); experiment: FCGR signaling activation assay (Jurkat NFAT-luciferase), FCGR4; assay type: cell-based; conditions: NFAT-luciferase reporter, FIG. 2H
T2 construct: expressed in transfected cells; host or cells: Jurkat-NFAT-LUC (Invivogen jktl-nfat), lentiviral transduction, puromycin selection
T2 sequence (A0A0B4J1G0 21-249): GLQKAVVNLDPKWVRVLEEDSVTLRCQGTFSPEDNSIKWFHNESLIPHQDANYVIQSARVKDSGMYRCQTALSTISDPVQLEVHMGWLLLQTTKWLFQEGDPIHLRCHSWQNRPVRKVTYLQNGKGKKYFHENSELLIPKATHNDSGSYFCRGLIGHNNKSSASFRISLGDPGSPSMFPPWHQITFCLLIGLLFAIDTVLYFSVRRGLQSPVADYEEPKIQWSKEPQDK
Protocol: as §1, §2

[6] = tested on: KPL-4 cells; experiment: ADCP assay with human monocytes-derived macrophages (hMDM); assay type: cell-based; conditions: CD47-KO versus control KPL-4; Trastuzumab 10 μg/mL; FIG. 8C
Protocol: (§3) FIG. 8. […] (A-B) Kaplan-Meier survival curve for breast cancer (BC) patients METABRIC Dataset. (A) Stratified into low and high groups based on average expression of CD47 in all patients. (B) The same patient stratification based on disease subtype (ER+, HER2+ and TNBC). (C) CD47 knockout in human HER2+ BC line KPL-4 was generated using CRISPR-Cas9 approach. […] Antibody-dependent-cellular-phagocytosis (ADCP) activity were measured by percentage of hMDM uptake of labeled KPL-4 cells (CD45+ and BV450+). Mean±SEM, biological replicates n=4. Experiment has been repeated using hMDMs generated from three healthy PBMC donors. (D) Control or CD47-KO KPL-4 cells were implanted into mammary fat pads of SCID-Beige Balb/c mice (5×10^5 cells). […] Two-way ANOVA test with Tukey's multiple comparisons, ****P<0.0001. […] Mean±SEM, n=7. […] Mean±SEM, n=7. Multiple two-sided t-test. (C and E) One-way ANOVA test with Tukey's multiple comparisons, *P<0.05, **P<0.01, ***P<0.001.
ADCP and ADCC by macrophages—Bone marrow derived macrophages (BMDM) were generated from mouse tibia, differentiated for 10 days with 50 ng/mL mouse MCSF (Peprotech 315-02). Briefly, 50 million bone marrow cells were plated in 10 cm^2 tissue culture dish with MCSF on day 0. […] After 2 hours co-culture, phagocytosis of BV450-labeled tumor cells by BMDM were analyzed by FACS with CD45-APC staining and Live-death (Red) staining. […]

[7] = tested on: KPL-4 tumors; experiment: KPL-4 xenograft in SCID-Beige mice; assay type: in vivo, mouse; conditions: 50 μg weekly; FIG. 8D
Protocol: as §3

[8] = tested on: tumor-associated macrophages; experiment: RT-qPCR analysis of macrophages sorted from KPL4 xenografts; assay type: in vivo, mouse; conditions: FIG. 8F
Protocol: as §3
KPL4 xenografts were processed into single cell suspensions as described above, and tumor associated macrophages were sorted by FACS (Live CD45+ CD11b+ Gr1− and F4/80+). RNA were isolated from sorted macrophages using RNeasy Mini Kit (Qiagen) and cDNA were generated using “All-in-One cDNA Synthesis Supermix (Biotool B24403). RT-qPCR were performed using 2× SYBR Green qPCR Master Mix (Biotool B21202).

[9] = MM3MG-HER2Δ16 tumors in Balb/c mice

Substance: Trastuzumab: HER2-specific humanized monoclonal antibody, human IgG1 isotype, high A/I ratio (SEQ ID NOs: 1-2)
- tumor cell growth in vitro [1]: not significantly enough to prevent tumor cell growth in vitro
- TAM levels ([2]; KPL-4 xenografts in SCID-beige mice, FIG. 8E): significant increase of TAMs
- TAM levels [2, 9]: significantly increased the levels of tumor-associated macrophages
- other immune infiltrates (NK cells, T cells) [2, 9]: did not increase other immune infiltrates such as NK cells and T cells
- NK cell-mediated ADCC [3]: increased
- FCGR1 signaling activation [4]: strong human-murine cross-reactivity
- FCGR4 signaling activation [5]: strong human-murine cross-reactivity
- ADCP of KPL-4 cells by hMDM [6]: increased their susceptibility to ADCP elicited by Trastuzumab
- tumor growth of CD47-KO KPL-4 [7]: tumors being completely eliminated
- tumor growth of control KPL-4 [7]: strong effect
- pro-inflammatory gene expression in sorted TAMs [8]: upregulation of pro-inflammatory genes
